For this test, the system named is tubulin in HuVEC cells. Put plainly: Action on microtubule function, α-tubulin staining in HuVEC. The class given is cell-based, human. Particulars: 2 μM, 30 minutes, vs DMSO control. The source says: Human umbilical vein endothelial cells (HuVEC from Cambrex) were used in this study.

Structures are written as SMILES.

As to `COc1cc2c(c(OC)c1OC)-c1ccc(OC)c(=O)cc1[C@@H](NC(C)=O)CC2` [colchicine, reference compound], the cell membrane blebbing entry is reported as “induced” and the microtubule depolymerization result is reported as “induced”.

The record behind these values is patent US10640492B2, “Tubulin inhibitor” (SHENZHEN NEPTUNUS PHARMACEUTICAL RESEARCH INSTITUTE CO., …, priority 2016, dated 2020).
